Results taken from US7541342B2, “Use of PKC-activating compounds as cardioprotectants and as apoptosis-inducing anti-tumor agents” (University of Tennessee Research Foundation, priority 2005, dated 2009).

Experiments:
K562 cells = assay: Cytotoxicity analysis in K562 cells; conditions: 3 μM AD 288
32D.3 cells = assay: Cell viability determination by trypan blue staining; conditions: cells with trans-dominant negative PKC-δ

In the case of `COc1cccc2c1C(=O)c1c(O)c3c(c(O)c1C2=O)C[C@@](O)(C(=O)CO)CC3O[C@H]1C[C@H](NCc2ccccc2)[C@H](O)[C@H](C)O1` (some centres unmarked) [AD 288, N-Benzyladriamycin], the “effect of PKC inhibitors (rottlerin, Go6976) on cytotoxicity” value (K562 cells) is reported as “not affected” and the “effect of reduced PKC activity on cytotoxicity” value (32D.3 cells) is reported as “no apparent effect”.
